Measured values as given in publication PMC4153963 (Drugs in R&D, 2014).

Format: in vivo, human (healthy adult subjects)
Conditions: human, plasma, oral

## COc1ccc2[nH]c([S+]([O-])Cc3ncc(C)c(OC)c3C)nc2c1 (stereo not shown) [Omeprazole]
  Tmax: 1.5 h
